This is an account of results in PubChem BioAssay AID2732 (Emory University Molecular Libraries Screening Center, 2010).

This is a selection; strong and weak results do not stand in their true shares. Some of these compounds have results that are not shown, active ones among them. Activity calls are given as the source filed them.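 How the source made its calls: active means compounds that reduced the stress-induced luciferase reporter signal by more than about 70% of percent inhibition (limit read from the data); inactive means the rest.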

For orientation: inhibition means the relative decrease from the control value, in per cent.

The assay in a line: inhibitors of CHOP promoter induction, primary screen, cell-based, unfolded protein response, luciferase reporter (AID 2732).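 Further: 0% = tunicamycin plus vehicle and 100% = wells without tunicamycin.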 To be noted: CHO-K1 CHOP-promoter luciferase, tunicamycin-induced, 15-18 h; at 10 µM; stronger effect = higher value. In general terms: In a reporter assay the amount or activity of a reporter protein is the signal.
Consider `C=CCN1CCN(CCOC(=O)C(O)(c2ccccc2)c2ccccc2)CC1`, for which the inhibition is inactive: 7.36%.
Consider `CCN1CCCC(OC(=O)C2(O)c3ccccc3C=Cc3ccccc32)C1` (configuration not stated), for which the inhibition is inactive: 15.6%.
On to `Cc1ccccc1C(=O)NCC1(N2CCCCC2)CCCCC1`, for which the inhibition is inactive: 12%.
For `CN(C)C1CCCC1OC(=O)C(O)(c1ccccc1)c1ccccc1` (configuration not stated), the inhibition was inactive: 4.68%.
Consider `CCCCC(CC)C(=O)N1CCN(C/C=C/c2ccccc2)CC1` (configuration not stated), for which the inhibition is active: 71.9%.
Consider `CCN(CC)CC(C)C(C)OC(=O)C(O)(c1ccccc1)c1ccccc1` (configuration not stated), for which the inhibition is inactive: -0.88%.
As for `CC(C)N1C(=O)CC2(CCN(CCOC(=O)C(O)(c3ccccc3)c3ccccc3)CC2)C1=O`, the inhibition is inactive: 5.15%.
Take `O=C(NCC1(N2CCCCC2)CCCCC1)c1cc([N+](=O)[O-])ccc1Cl`: the inhibition is inactive: -5.67%.
Under `COc1ccc(Br)c(C(=O)NCC2(N3CCCCC3)CCCCC2)c1` stands inactive: 19.7%; under `CN(C)c1cccc(C(=O)NCC2(N(C)C)CCCCC2)c1`, inactive: -18.8%; under `O=C(OC1CN2CCC1CC2)C(CO)(c1ccccc1)c1ccccc1` (configuration not stated), inactive: -0.22%.
For `COc1cccc(C(=O)NCC2(N3CCCCC3)CCCCC2)c1`, the inhibition is inactive: 11%.
